For test [1], the system named is GSTs in mouse liver cytosol. Particulars: competitor 25 μM, p≤0.05.
The subject of test [2] is GSTs (H site) in mouse liver cytosol.

Bounds are passed on as bounds.

`O=C1C(Cl)=C(Cl)C(=O)c2ccccc21` [Dichlon, 2,3 dichloro-1,4-naphthoquinone, reference compound]: the “fold change inhibition of GSH-ABP-G labeling of GSTP1, M4, A3, M1, K1, and M2” value in test [1] was above 2. The “competition of GST-ABP-H labeling of mouse liver cytosol (fluorescent bands)” value in test [2] (SDS-PAGE fluorescence) is listed as “decreases in all measurable fluorescent bands”.
As to `C=C(CC)C(=O)c1ccc(OCC(=O)O)c(Cl)c1Cl` [ethacrynic acid], the “potency in inhibiting GST-ABP-H enzyme labeling compared to S-hexylglutathione” value in test [2] (mouse liver cytosol, 10 μM probe) is around 12 ×.

Source of the values: patent US11891655B2, “Probe for selectively characterizing enzymes involved in xenobiotic metabolism and method of making and using the same” (Battelle Memorial Institute, priority 2017, dated 2024).
